Biological target: T1, Nuclear receptor subfamily 1 group D member 1 (Homo sapiens, UniProt P20393)
T1 sequence (P20393 whole entry): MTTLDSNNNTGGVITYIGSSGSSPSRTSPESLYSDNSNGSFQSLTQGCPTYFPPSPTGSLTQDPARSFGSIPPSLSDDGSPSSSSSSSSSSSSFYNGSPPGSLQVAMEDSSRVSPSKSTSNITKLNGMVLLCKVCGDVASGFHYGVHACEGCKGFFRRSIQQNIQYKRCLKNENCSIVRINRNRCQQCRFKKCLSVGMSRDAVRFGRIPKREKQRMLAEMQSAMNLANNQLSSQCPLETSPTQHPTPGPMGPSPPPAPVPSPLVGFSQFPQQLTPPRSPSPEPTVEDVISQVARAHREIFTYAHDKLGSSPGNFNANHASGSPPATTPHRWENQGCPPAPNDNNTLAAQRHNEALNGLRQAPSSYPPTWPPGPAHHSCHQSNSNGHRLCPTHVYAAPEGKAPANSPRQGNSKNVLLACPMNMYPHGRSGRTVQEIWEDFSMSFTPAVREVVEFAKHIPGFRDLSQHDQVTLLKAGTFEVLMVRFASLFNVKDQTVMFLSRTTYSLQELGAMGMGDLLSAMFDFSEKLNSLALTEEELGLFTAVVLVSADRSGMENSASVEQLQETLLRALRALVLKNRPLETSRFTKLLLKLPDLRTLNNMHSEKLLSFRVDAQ
Assay: Agonist activity at Rev-Erbalpha expressed in HEK293 cells coexpressing […] promoter assessed as repression of transcription after 24 hrs by dual-Glo luciferase assay
Type: functional, cell-based
Procedure, shortened: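 Cells co-transfected with full-length Rev-erbα expression plasmid and Bmal1 promoter-driven luciferase reporter. Compounds first screened at 1 and 10 μM; those active at 10 μM titrated in eleven-point dose-response to derive EC50. Renilla luciferase used for normalization and toxicity monitoring. Average of 2 or more experiments.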

With `CCOC(=O)N1CCC(CN(Cc2ccc(Cl)cc2)Cc2ccc([N+](=O)[O-])s2)C1` (racemic) [SR9009] the EC50 was 700 nM.

From ChEMBL document CHEMBL2057134, “Small molecule tertiary amines as agonists of the nuclear hormone receptor Rev-erbα” (Bioorg Med Chem Lett, 2012)
